Data published in PubChem BioAssay AID588358 (NMMLSC, 2011).
This is a selection; strong and weak results do not stand in their true shares. Calls of active or inactive are those of the source.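 The calls were made as follows: active = binding more than 3 SD below its plate's average and above zero; inconclusive = below that plate limit but binding exactly zero; inactive = the rest.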

The chains behind the UniProt entries cited, without tags or fusion partners.
UniProt P32926, whole entry, looked up: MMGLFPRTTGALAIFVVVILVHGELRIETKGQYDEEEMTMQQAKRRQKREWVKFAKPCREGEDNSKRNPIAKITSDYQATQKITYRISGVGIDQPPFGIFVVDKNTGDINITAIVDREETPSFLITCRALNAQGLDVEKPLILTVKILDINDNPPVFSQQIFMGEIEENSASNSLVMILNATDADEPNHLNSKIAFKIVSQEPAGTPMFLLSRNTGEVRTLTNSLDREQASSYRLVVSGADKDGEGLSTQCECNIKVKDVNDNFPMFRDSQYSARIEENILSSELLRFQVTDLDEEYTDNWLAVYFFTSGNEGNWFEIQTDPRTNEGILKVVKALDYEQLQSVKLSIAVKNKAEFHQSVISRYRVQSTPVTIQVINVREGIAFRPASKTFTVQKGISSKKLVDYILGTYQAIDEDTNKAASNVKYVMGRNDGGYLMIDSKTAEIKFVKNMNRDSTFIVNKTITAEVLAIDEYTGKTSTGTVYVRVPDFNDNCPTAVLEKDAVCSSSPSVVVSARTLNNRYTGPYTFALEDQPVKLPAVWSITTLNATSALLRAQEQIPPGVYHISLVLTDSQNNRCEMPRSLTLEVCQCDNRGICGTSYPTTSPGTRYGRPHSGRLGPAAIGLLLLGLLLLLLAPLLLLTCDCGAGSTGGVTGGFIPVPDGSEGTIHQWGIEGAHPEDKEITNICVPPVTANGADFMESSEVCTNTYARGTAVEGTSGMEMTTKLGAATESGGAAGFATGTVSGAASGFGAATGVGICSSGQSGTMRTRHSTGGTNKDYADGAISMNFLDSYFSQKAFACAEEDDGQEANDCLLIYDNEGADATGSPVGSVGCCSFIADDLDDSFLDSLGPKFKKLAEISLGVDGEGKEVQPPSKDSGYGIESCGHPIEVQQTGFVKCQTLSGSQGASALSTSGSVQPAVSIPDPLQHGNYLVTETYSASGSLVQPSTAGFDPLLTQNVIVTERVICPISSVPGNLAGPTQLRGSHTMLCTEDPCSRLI

What follows are molecules tested against Desmoglein-3 (Homo sapiens) (UniProt P32926) (assay: inhibitors of pemphigus antibody binding to DSG3, primary screen, biochemical, bead-based, flow cytometry, scFv-GFP (AID 588358;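 also: hits lower antibody fragment binding to DSG3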)). Settings: DSG3-coupled beads, scFv-anti-DSG3-GFP binding, at 10 µM, hits give low values.

| Compound | binding (percent of control) |
| --- | --- |
| Cc1cc(-c2cccc3ccccc23)c(C)cn1.O=[N+]([O-])c1cc([N+](=O)[O-])c(O)c([N+](=O)[O-])c1 | inactive: 102% |
| O=[N+]([O-])c1cc([N+](=O)[O-])c(NCC2CCS(=O)(=O)C2)c([N+](=O)[O-])c1 (stereo unspecified) | inactive: 102% |
| O=[N+]([O-])c1ccc(OP2(=O)COCCO2)cc1 (stereo unspecified) | inactive: 92% |
| COc1ccc(NP(C)(=O)Oc2ccccc2OC)cc1 (stereo unspecified) | inactive: 101% |
| CN(C)CCOC(=O)C(O)(c1ccccc1)C1CCCCC1 (stereo unspecified) | inactive: 89.1% |
| COc1ccc(OP(C)(=O)Nc2cccc(Br)c2)cc1 (stereo unspecified) | inactive: 103% |
| CP(=O)(OC12CC3CC(CC(C3)C1)C2)OC12CC3CC(CC(C3)C1)C2 | inactive: 102% |
| CCOC(=O)c1ccc(NP(C)(=O)Oc2ccc(Cl)cc2)cc1 (stereo unspecified) | inactive: 127% |
| Nc1ccc2c(ccc3cccnc32)n1.O=[N+]([O-])c1cc([N+](=O)[O-])c(O)c([N+](=O)[O-])c1 | inactive: 98% |
| CN(C)C(=O)c1c([N+](=O)[O-])cc([N+](=O)[O-])cc1[N+](=O)[O-] | inactive: 99.8% |
| CP(=O)(Nc1ccc(Cl)cc1)Oc1ccc(F)cc1 (stereo unspecified) | inactive: 103% |
| COc1ccccc1OP(C)(=O)Nc1ccccc1Br (stereo unspecified) | inactive: 95.3% |
| CC(C)(C)c1ccc(OP(C)(=O)O)cc1 | inactive: 103% |
| CP(=O)(Oc1ccccc1)N1CCOC1=O (stereo unspecified) | inactive: 108% |
| COc1ccccc1OP(C)(=O)Nc1c(C)n(C)n(-c2ccccc2)c1=O (stereo unspecified) | inactive: 101% |
| COc1ccc(OP(C)(=O)Nc2ccc(Br)cc2)cc1 (stereo unspecified) | inactive: 106% |

| Compound | binding (percent of control) |
| --- | --- |
| CCc1ccc(OP(C)(=O)O)cc1 | inactive: 96.1% |
| COc1ccccc1OP(C)(=O)Nc1ccc(C)cc1C (stereo unspecified) | inactive: 91.7% |
| CP(=O)(Nc1ccccn1)Oc1ccccc1 (stereo unspecified) | inactive: 98.8% |
| Cc1c(NP(C)(=O)Oc2ccc(C(C)C)cc2)c(=O)n(-c2ccccc2)n1C (stereo unspecified) | inactive: 100% |
| O=[N+]([O-])c1cc([N+](=O)[O-])c(Nc2ccccn2)c([N+](=O)[O-])c1 | inactive: 104% |
| CN(C)CCOC(=O)C(O)(c1ccccc1)C1CCCC1 (stereo unspecified) | inactive: 104% |
| COc1ccc(OP(C)(=O)Nc2ccccn2)cc1 (stereo unspecified) | inactive: 93.2% |
| COc1ccccc1OP(C)(=O)Nc1ccc(Br)cc1 (stereo unspecified) | inactive: 82.3% |
| CCCCCCCCCCCCCCCC1C[N+](C)(C)CCOP(C)(=O)O1 (stereo unspecified) | inactive: 121% |
| CP(=O)(Nc1ccc(Cl)cc1Cl)Oc1ccccc1 (stereo unspecified) | inactive: 104% |
| CP(=O)(OCCOc1ccccc1)OCCOc1ccccc1 | inactive: 104% |
| COc1ccc(OP(C)(=O)Nc2ccccc2Br)cc1 (stereo unspecified) | inactive: 95% |
| COc1ccccc1OP(C)(=O)Nc1ccc(C)c(C)c1 (stereo unspecified) | inactive: 100% |
| Cc1cc(C)cc(OP(C)(=O)Nc2cccc(C(F)(F)F)c2)c1 (stereo unspecified) | inactive: 104% |
| O=C1C(O)=C([N+](=O)[O-])C(=O)C(O)=C1[N+](=O)[O-] | inactive: 119% |
